Test system: S. mutans
Assay type: cell-based, Streptococcus mutans
Method: Cell viability of S. mutans, S. gordonii, S. sanguinis, Aggregatibacter actinomycetemcomitans and Actinomyces. […] The number of colony-forming units (CFU) per milliliter of each sample treated with selected compounds at different concentrations was enumerated after incubation for 24 h at 37° C. and compared to the values obtained from the DMSO control group. Overnight broth cultures were transferred by 1:50 dilutions into fresh THB medium and were allowed to grow until mid-exponential phase (OD470 nm 0.6) before transfer to 96-well plates containing desired concentration of the compound. After 16 h incubation, bacterial growth was measured at OD470, and normalized to the DMSO control (100%).
Cell viability of S. mutans and commensal S. gordonii and S. sanguinis. Effects of lead small molecules on cell viability were examined. The number of colony-forming units (CFU) per milliliter for each compound at different concentrations was determined after incubation for 24 h at 37° C. and compared to the values obtained from the DMSO control group.
Cell viability of S. mutans and commensal S. gordonii and S. sanguinis. […] DMSO served as a control group and provided a relative comparison for the number of colony-forming units (CFU) per milliliter for each compound at different concentrations was determined after incubation for 24 h at 37° C. […]

In the case of `N=C(N)c1ccc(/C=C/c2ccc(C(=N)N)cc2O)cc1` [Entry 5], the Selectivity is reported as 1.7.
